Series [1] concerns P-gp, BCRP, and MRP2. As to the kind of experiment: mock screening of model drugs: ex vivo perfusion through porcine small intestine tissue after siRNA knockdown. The conditions noted are these: transporter(s) found by siRNA knockdown perfusion screen.
In series [2] the test system is Pgp, BCRP, MRP2. The conditions noted are these: transporter(s) reported in previous literature for the drug; cited from earlier work.

Consider Dihydroergotamine (+)-tartrate salt, for which the “Platform Target” value in series [1] was “MRP2”. In series [2], the “Literature Target” value is recorded as “Pgp”.
Take S)-(−)-Propranolol hydrochloride: the “Platform Target” value in series [1] is given as “Pgp”. The “Literature Target” value in series [2] was “Pgp”.

These data come from patent publication US12031977B2, “Ex vivo system for determining multiple drug-drug transporter interactions and methods of use thereof” (Massachusetts Institute of Technology, priority 2019, dated 2024).
